The values that follow are results of earlier work, collected in US20220192984A1, “PHARMACEUTICAL COMPOSITIONS COMPRISING OTIC THERAPEUTIC AGENTS AND RELATED METHODS” (Frequency Therapeutics, Inc., priority 2018, published 2022).

The target in this data set is LSD1 (Homo sapiens, UniProt O60341). The note with it: Table 18, LSD1; read-out: pKi or IC50 (converted); cited from earlier work.

For the substance OG-L002, the IC50 – broadly, the point on the concentration scale where inhibition reaches its midpoint – was 20 nM.
